The values below come from ChEMBL document CHEMBL1149491, “Novel tricyclic azepine derivatives: Biological evaluation of pyrimido[4,5-b]-1,4-benzoxazepines, thiazepines, and diazepines as inhibitors of the epidermal growth factor receptor tyrosine kinase” (Bioorg Med Chem Lett, 2006).

Chains of the proteins cited; added tags and fusions are not shown.
UniProt P00533, whole entry: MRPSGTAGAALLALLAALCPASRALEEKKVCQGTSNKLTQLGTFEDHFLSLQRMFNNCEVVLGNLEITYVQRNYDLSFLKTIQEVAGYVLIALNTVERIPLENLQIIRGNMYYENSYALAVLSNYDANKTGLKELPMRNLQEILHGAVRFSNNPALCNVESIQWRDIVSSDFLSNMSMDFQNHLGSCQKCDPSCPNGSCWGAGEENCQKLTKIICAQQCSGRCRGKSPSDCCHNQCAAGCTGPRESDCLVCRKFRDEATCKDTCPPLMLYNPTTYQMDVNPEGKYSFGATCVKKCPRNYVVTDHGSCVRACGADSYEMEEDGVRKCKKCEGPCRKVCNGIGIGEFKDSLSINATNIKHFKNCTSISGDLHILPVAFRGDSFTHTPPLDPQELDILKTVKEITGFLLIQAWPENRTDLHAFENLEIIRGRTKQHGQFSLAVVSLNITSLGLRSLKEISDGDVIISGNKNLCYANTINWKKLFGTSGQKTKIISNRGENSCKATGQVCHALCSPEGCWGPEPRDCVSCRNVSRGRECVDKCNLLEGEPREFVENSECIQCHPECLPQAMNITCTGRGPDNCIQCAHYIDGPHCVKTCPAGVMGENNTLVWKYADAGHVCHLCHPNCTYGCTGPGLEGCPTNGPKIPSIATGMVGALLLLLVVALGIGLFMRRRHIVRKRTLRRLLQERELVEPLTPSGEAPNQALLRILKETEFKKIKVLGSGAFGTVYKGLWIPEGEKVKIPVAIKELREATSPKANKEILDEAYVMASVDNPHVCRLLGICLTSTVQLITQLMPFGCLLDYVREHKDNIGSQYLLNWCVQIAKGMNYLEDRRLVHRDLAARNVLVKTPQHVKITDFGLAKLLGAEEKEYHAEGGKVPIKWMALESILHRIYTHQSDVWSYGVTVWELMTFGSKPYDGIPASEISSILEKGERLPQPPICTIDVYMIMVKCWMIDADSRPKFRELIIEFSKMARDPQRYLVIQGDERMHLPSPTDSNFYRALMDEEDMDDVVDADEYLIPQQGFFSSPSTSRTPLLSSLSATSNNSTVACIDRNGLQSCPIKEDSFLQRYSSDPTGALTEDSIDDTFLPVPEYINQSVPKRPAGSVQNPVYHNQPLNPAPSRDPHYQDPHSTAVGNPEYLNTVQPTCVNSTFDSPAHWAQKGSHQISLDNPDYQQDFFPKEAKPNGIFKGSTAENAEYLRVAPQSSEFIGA

In assay [1] the target is T1, Epidermal growth factor receptor (Homo sapiens, UniProt P00533). Put plainly: Inhibition of EGFR measured as pGAT-biotin peptide phosphorylation in presence of 2.0 uM ATP by HTRF assay. The assay is classed as functional.
The target in assay [2] is T1, Epidermal growth factor receptor. Put plainly: Inhibition of EGFR autophosphorylation in DiFi cells by ELISA. The assay is classed as functional, cell-based.

A word on the IC50: it is the concentration at which inhibition is half-maximal.

As for `COc1cc2c(cc1OC)Oc1ncnc(Nc3ccc(F)cc3Cl)c1NC2`, the IC50 in assay [1] was 3.4 µM; in assay [2], over 100 µM.
